Molecular target: 5-hydroxytryptamine receptor 5B (Rattus norvegicus, UniProt P35365)

Protein sequences, listed by entry. Tags and fused reporters are not part of them.
UniProt P35365, whole entry: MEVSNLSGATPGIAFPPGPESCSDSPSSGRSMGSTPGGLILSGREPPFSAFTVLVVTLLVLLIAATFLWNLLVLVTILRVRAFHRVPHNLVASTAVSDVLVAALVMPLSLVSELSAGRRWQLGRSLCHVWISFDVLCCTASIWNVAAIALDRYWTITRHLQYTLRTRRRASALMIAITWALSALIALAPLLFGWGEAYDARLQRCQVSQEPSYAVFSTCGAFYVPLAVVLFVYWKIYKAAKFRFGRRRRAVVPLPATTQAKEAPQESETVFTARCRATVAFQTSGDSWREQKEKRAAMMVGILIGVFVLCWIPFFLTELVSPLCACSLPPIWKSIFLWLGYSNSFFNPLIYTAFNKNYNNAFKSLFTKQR

SMILES	Ki [nM]
NCCc1c[nH]c2ccc(O)cc12 [[3H]-5-HT]	7.8
CSc1ccc2c(c1)C(N1CCN(C)CC1)Cc1ccccc1S2 (configuration not stated) [methanesulfonic acid;1-methyl-4-(3-methylsulfanyl-5,6-dihydrobenzo[b][1]benzothiepin-5-yl)piperazine]	44.2
